# According to patent publication US9351929B2, “Antibiotic formulations, unit doses, kits, and methods” (Bayer Intellectual Property GMBH, priority 2005, dated 2016):
# Test: Aerosol particle size distribution by laser diffraction
# Format: physicochemical
# Conditions: solutions in WFI 40-120 mg/ml, fill 2-4 ml
substance,measurement,value
gentamicin sulfate,volume median diameter of aerosol,2-3 μm
